Patent US20070009621A1, “Correcting systemic androgen levels using Eurycoma longifolia” (priority 2005, published 2007)

What was measured:
[1] = system: rat Leydig cells; assay: Testosterone concentration in rat Leydig cells by ELISA; assay type: cell-based; conditions: incubated an hour, Eurycoma longifolia 75 ug/ml, Hcg −0.05 IU/ml, Lac 10 ul/ml
Procedure: Eurycoma longifolia treatment on testosterone concentration in rat Leydig Cells, as measured by in Enzyme Linked Immuno-Sorbent Assay (ELISA) Analysis. Rat Leydig cells were incubated with either Hcg, Lac or Eurycoma longifolia. After incubation, the concentration of testosterone was measured. Five×10 4 cells/100 ul of rat leydig cells were used. 75 ug/ml of Eurycoma longifolia were added into cell cultures medium. Cells were treated with the samples and controls and incubated for an hour with 5% CO2 at 37 C. The cells were then assayed by a standard immunology assay procedure, for the determination of testosterone concentration.

[2] = system: CYP17 gene; assay: Real Time RT-PCR gene expression analysis in rat Leydig cells; assay type: cell-based; conditions: normalized to 5sRNA housekeeping gene and to control, mean of triplicate incubations ±SD
Excerpt: Gene expression analysis using Real Time Reverse Transcription Polymerase Chain Reaction (RT-PCR) is based on detection and quantitation of a fluorescent signal, which increases in direct proportion to the amount of PCR product n a reaction. In this study, the signal used is a double-stranded DNA specific fluoresce dye (SYBR Green 1). Real Time RT-PCR allows researcher to examine the relative level of gene expression and variation between samples. The objective of this analysis is to observe the effect of Eurycoma longifolia towards gene expression level. As for this study, the genes of interest are the genes involved in testosterone/androgen biosynthesis pathways and also spermatogenesis.
Prior to Real Time RT-PCR, rat Leydig cells were given the same treatment and incubation as in the EIA experiment. At the end of the incubation, culture media were removed and RNA was extracted from the cells. […]
The housekeeping gene acts as an endogenous control in the assay to correct any sample to sample variation or errors in sample quantitation. […]
Relative values were obtained by dividing the normalized value of each treated samples with the normalized control value for each corresponding group. […] All values were statistically evaluated using SPSS version 11.0; differences were significant at p<0.01 […]

Hcg: positive control (hCG) in Leydig cell and CYP17 tests
Testosterone Concentration ([1]; rat Leydig cells 5×10^4 cells/100 ul, 5% CO2 at 37 C): 13.14 ± 2.61 pg/mL
% increase (testosterone concentration) ([1]; versus Control, rat Leydig cells): 47.27%
Relative Value for CYP17 Gene [2]: 1.57 ± 0.282
